For 4 compounds, Ki, Selectivity n/i and Selectivity n/e results are on record in patent US9242957B2, “Thiophene-2-carboximidamide based selective neuronal nitric oxide inhibitors” (Northwestern University, priority 2012, dated 2016).

The target in assay [1] is murine iNOS (Mus musculus (Mouse), UniProt P29477). In words: NOS inhibition assay, iNOS. Type of assay: biochemical. The conditions noted are these: Table 2; for Ki: murine iNOS, Km […], Ki = IC50/(1 + [S]/KM).
Assay [2] has as its target bovine eNOS (Bos taurus (Bovine), UniProt P29473). In words: NOS inhibition assay, eNOS. The format is biochemical. The conditions noted are these: Table 2; for Ki: bovine eNOS, Km […], Ki = IC50/(1 + [S]/KM).

The Ki is the dissociation constant of the complex between target and ligand, obtained from inhibition or displacement. Regarding `N=C(Nc1cccc(COC[C@H]2C[C@@H](OCc3cccc(NC(=N)c4cccs4)c3)CN2)c1)c1cccs1` [QJ-II-187], the Ki came to 1990 nM in assay [1] and 3630 nM in assay [2].
For `N=C(Nc1cccc(COC[C@@H]2C[C@@H](OCc3cccc(NC(=N)c4cccs4)c3)CN2)c1)c1cccs1` [QJ-II-194], the figures for the inhibitory constant (Ki) in assay [1] and in assay [2] were 1110 nM and 2470 nM, respectively.
Regarding `N=C(Nc1cccc(COC[C@@H]2C[C@H](OCc3cccc(NC(=N)c4cccs4)c3)CN2)c1)c1cccs1` [QJ-II-195], the Ki was found to be 2110 nM in assay [1] and 1450 nM in assay [2].
Take `N=C(Nc1cccc(OC[C@@H]2C[C@@H](Oc3cccc(NC(=N)c4cccs4)c3)CN2)c1)c1cccs1` [QJ-III-08]: the Selectivity n/i in assay [1] (ratio of Ki (iNOS) to Ki (nNOS)) amounted to 86. For the same compound, the Selectivity n/e in assay [2] (ratio of Ki (eNOS) to Ki (nNOS)) is 119.
